A word on the stoichiometry N: it is a count of units in the complex or per binding partner.

Stoichiometry N data for one substance are collected here from article PMC3438169.

The experiment concerns the target argyrin B (Actinoplanes sp. 86317). Nature of the experiment: ITC; 44 uM EF-G1 injected into the cell with 2.5 uM argyrin B; 25°C; 50 mM Tris-HCl pH 7.6, 10 mM MgCl2, 1 mM TCEP, 10 mM NH4Cl, 100 uM GDP, 2% DMSO; one binding site model. Background: Isothermal titration calorimetry measures the heat released or taken up as one component is titrated into another.

“P. aeruginosa elongation factor G1 (EF-G1, encoded by fusA1), his-tagged (from UniProt Q9HWD2 1-706) (natural protein)” displayed a stoichiometry N of 1.
